Results as given in patent US11236378B2 (priority 2015, dated 2022).

Chains of the proteins cited; added tags and fusions are not shown. Lines headed by an entry give the natural chain unless they say otherwise; changes in a name come on top.
UniProt P05067: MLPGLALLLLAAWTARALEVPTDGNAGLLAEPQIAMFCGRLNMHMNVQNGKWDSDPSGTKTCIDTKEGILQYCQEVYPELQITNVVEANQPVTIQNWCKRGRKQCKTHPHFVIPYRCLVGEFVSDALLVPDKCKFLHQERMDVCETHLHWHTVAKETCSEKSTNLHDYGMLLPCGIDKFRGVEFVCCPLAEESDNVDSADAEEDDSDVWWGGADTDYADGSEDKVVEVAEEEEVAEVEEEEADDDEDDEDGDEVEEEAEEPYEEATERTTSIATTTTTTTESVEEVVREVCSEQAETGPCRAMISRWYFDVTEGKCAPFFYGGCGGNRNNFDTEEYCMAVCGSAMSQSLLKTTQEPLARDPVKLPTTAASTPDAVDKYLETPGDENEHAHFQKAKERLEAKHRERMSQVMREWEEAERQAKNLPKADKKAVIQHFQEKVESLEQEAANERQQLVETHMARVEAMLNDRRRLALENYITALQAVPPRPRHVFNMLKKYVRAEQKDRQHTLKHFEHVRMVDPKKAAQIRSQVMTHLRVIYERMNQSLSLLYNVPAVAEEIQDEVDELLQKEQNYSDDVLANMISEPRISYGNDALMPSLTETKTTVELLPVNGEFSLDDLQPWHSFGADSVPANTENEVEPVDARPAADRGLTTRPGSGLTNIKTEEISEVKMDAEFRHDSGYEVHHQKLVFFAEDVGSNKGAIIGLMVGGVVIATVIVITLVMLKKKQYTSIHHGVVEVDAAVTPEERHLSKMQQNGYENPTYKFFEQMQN

Assays:
HEK293T-APP cells = experiment: Aβ42 secretion detected in HEK293T-APP cells (ELISA of culture medium); type: cell-based, human; conditions: class symbols +, key not given
Aβ42 = Aβ42 (Homo sapiens, UniProt P05067); experiment: Liposome experiment: Aβ42 aggregation/oligomerization (immunoblot)

Molecule: O=[As]c1cccc2cc3ccccc3cc12 (stereo not shown)
- Activity (HEK293T-APP cells): + +

Molecule: phosphatidylinositol 4-phosphate
- facilitation effect on oligomerization of Aβ42 at high concentration (Aβ42; 80 μM compared to 40 μM): the facilitation effect on oligomerization of Aβ42 decreases as compared to a concentration of 40 μM
- facilitation effect on Aβ42 aggregation in liposomes compared with other lipids (Aβ42; compared with PI and PI4,5P): significantly stronger than PI and PI4,5P
- oligomerization of Aβ42 in liposomes (Aβ42; varying PI4P concentration): facilitates oligomerization of Aβ42 in liposomes in a concentration dependent manner
